Source: US20150173370A1, “S[…] CONTROL FROM COMBINATIONS OF 2,4-D-CHOLINE, GLYPHOSATE, AND GLUFOSINATE” (Dow AgroSciences LLC, priority 2013, published 2015)

Tested on: AAD12 Soybean (GLXMA)
Test: Field trials, crop tolerance (% visual necrosis)
Format: in vivo, Glycine max L. (soybean)
Conditions: 2 DAA, 822 g ae/ha alone
Description: Field trials were conducted under agricultural field conditions in multiple states in the United States, including but not limited to Arkansas, Iowa, Illinois, Indiana, Kansas, Minnesota, Mississippi, Missouri, New York, Tennessee and Wisconsin. Trials were established as RCB (randomized complete block) design, with 3-4 replicates per treatment, and plot sizes varying from 5-10 feet (ft) wide by 12-30 ft long. Treatments were applied with small plot backpack sprayers, using pressurized carbon dioxide (CO2) as propellant. Pressure varied from 17-52 pounds per square inch (psi), with spray tips typically of a Flat Fan type applying water diluent at 15 gallons per acre (GPA). Boom sizes varied from 5-11 ft in width. Treatments were applied to soybean, cotton, corn or fallow crop land. Weed sizes varied, but all treatments were applied as post-emergence treatments to weeds from 2 leaf to 2 tiller growth stages varying from 3 to 17 inches in height. The weed spectrum included, but was not limited to, Amaranthus palmeri S. Wats. (Palmer amaranth, AMAPA), Ambrosia trifida L. (giant ragweed, AMBTR), Conyza canadensis (L.) Cronq. (horseweed, ERICA) and Salsola tragus L. (Russian thistle, SASKR). […]
However, the experiments described herein were performed such that active ingredients A and B were combined and only the efficacy of the combination was determined. […]

With `CP(=O)(O)CCC(N)C(=O)O` (stereo not shown) [Glufosinate-Ammonium, ammonium (3-amino-3-carboxypropyl)(methyl)phosphinate] the “Mean % Visual Necrosis” value was 21.3%.
